Data reported in patent US12173004B2, “Pharmaceutical compositions comprising heterocycle fused gamma carboline prodrugs” (INTRA-CELLULAR THERAPIES, INC., priority 2017, dated 2024).

Test system: male Sprague-Dawley rats
Assay: Rat Tolerance/Dependence Study (28 day)

With `O=C1CN2c3c(cccc3[C@@H]3CN(CCCOc4ccc(F)cc4)CC[C@@H]32)N1` [Example 2, (6bR,10aS)-8-(3-(4-fluorophenoxy)propyl)-6b,7,8,9,10,10a-hexahydro-1H-pyrido[3′,4′:4,5]pyrrolo[1,2,3-de]quinoxalin-2(3H)-one] the “effect on animal body weight, food and water intake or body temperature” value (both doses (0.3 and 3 mg/kg s.c.), on-dose or withdrawal phase) was “no significant effect”, the “main behavioral and physical signs” value (higher dose (3 mg/kg)) was “hunched posture, subdued behavior, Straub tail, tail rattle and piloerection” and the “predominant behavioral and physical effects, dosing phase” value (repeated administration at 0.3 mg/kg) was “hunched posture, Straub tail and piloerection”.
